## Ab-95 light chain CDR variants: yeast mating affinities

Antigen: PDVDLGDISGINAS, a 14-residue peptide of the SARS-CoV-2 spike HR2 region.

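Phage display of a naive human antibody library on the peptide gave the parent. Variants in AAYL52 differ from the parent at up to three CDR positions; double and triple changes were sampled at random. The scFvs were displayed on barcoded MATa yeast, the peptide on MATalpha yeast. After mating in shaken culture at 30 °C for 16 h, diploids were selected and their barcode pairs sequenced. Read counts were normalised to the haploid input and turned into Kd by a linear fit to BCL2-family pairs of known affinity, for each replicate. The assay was run in three technical replicates.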

Parent: Ab-95, a human scFv built as VH, a (GGGGS)3 linker, VL. Only the CDRs of the light chain vary.
VH: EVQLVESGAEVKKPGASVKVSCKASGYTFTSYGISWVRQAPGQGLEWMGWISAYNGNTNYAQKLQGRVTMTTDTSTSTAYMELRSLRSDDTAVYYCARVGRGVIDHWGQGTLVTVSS
VL: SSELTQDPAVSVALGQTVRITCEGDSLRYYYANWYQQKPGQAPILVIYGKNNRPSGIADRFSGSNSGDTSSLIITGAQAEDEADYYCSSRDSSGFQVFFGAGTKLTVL

The parent's light chain CDRs are EGDSLRYYYAN, GKNNRPS, SSRDSSGFQVF; each variant's own CDRs replace them letter for letter.
Values are log10 of the apparent Kd in nM; lower means stronger binding.
A pair that was not seen in that replicate is written "nd"; this usually means weak binding, but a binder can also be missed.

CDR-L1,CDR-L2,CDR-L3,log10 Kd (nM) by replicate,signal with controls
EGDSLRYYYAN,GKNNRPS,SSRDSSGFQHR,1.88 1.86 1.62,3 of 9 (3.38)
NGISLRYYYAN,GKNYRPS,SSRDSSGFQVF,3.39 4.00 4.46,2 of 9 (4.07)
EGDSLRYYYAW,GKNNRPS,SSNDSSGFQVD,5.26 3.68 nd,3 of 9 (3.31)
EGDSLRYMYAN,GKNNRPS,SSRDSSVFQTF,4.25 nd nd,5 of 9 (3.93)
EGDSLRYYYAN,GKNNRPS,SSFDSSGFIGF,nd 4.72 nd,1 of 9 (3.64)
EGDSLTYYYMN,GKNNRPS,SSRDSSGFQVG,3.48 nd nd,3 of 9 (3.76)
EGNSLEYYYAN,GKNNRPS,SSRDSSGFRVF,2.18 2.19 2.21,6 of 9 (3.93)
EEDSLRYYYAN,GKNNRPS,SSRNSSGTQVF,nd nd 4.33,1 of 9 (4.22)
EGDSLRYYSWN,GKNNRPS,SSRDSSGQQVF,4.20 4.06 3.13,3 of 9 (4.10)
EIDSLRYYYAN,GKNNRPS,SSRDSFGAQVF,3.71 nd nd,2 of 9 (4.75)
EGDSLRYYYAN,GKNNRPS,SSWDWSGFQVN,nd 4.75 nd,0 of 9
EGDSLRYYYAN,GYNNRPS,SSRDSSGYWVF,4.25 nd nd,2 of 9 (3.92)
EGDSLRYYYVN,GKNTRPS,SSRDSSGIQVF,2.90 3.71 nd,3 of 9 (3.81)
EGDSHRYYYAN,GKNNRKS,SKRDSSGFQVF,4.34 4.44 nd,0 of 9
PGDSLRYYYAN,GKNNRLS,SSRDSSGAQVF,3.48 3.23 3.39,0 of 9
EADSLRYYYAP,GKNNRPS,SSRDSSGFIVF,nd nd nd,3 of 9 (3.95)
EGWSLRYYFAL,GKNNRPS,SSRDSSGFQVF,3.76 3.99 nd,5 of 9 (4.24)
EGDSNRNYYAN,GKNNRPS,SSRDSRGFQVF,4.08 3.87 nd,3 of 9 (3.91)
EGDSLRYYTAN,GKNNRPS,ESRDSHGFQVF,2.11 1.97 1.51,2 of 9 (3.83)
EGDSLRYYGAR,GKNKRPS,SSRDSSGFQVF,2.41 2.17 1.84,6 of 9 (4.14)
EGDSCRWYYAN,GKNNRPS,PSRDSSGFQVF,nd 5.00 nd,3 of 9 (3.88)
EGDSLRYYYAN,GKNFRPS,SSRTSSGAQVF,3.03 3.88 3.38,4 of 9 (4.02)
EGDSLRYYMAN,GKNNRPS,SSRDSSGFGVF,3.20 3.00 2.39,4 of 9 (4.11)
EGDSLRYYYAN,GKNDRPS,SSRDSSNFQVF,2.28 2.96 2.32,2 of 9 (4.15)
EGDSLRYYYYN,GDNNRPS,SSDDSSGFQVF,3.93 nd nd,4 of 9 (4.35)
EGDSLRYYYWN,GNNNRPS,SSRDSSMFQVF,2.88 2.70 2.41,6 of 9 (3.94)
EGDSLRYYYAN,GKNNRPS,SSRAPSGFLVF,2.62 2.43 2.89,1 of 9 (3.27)
EGDSLRYYYVN,GKNNLPS,SSRSSSGFQVF,3.84 nd nd,2 of 9 (4.77)
EGDSRRYYNAN,GFNNRPS,SSRDSSGFQVF,3.92 3.16 3.57,3 of 9 (3.80)
EGDSLRYYYAN,GKNPQPS,SSRDSSGFQVV,3.85 nd nd,1 of 9 (2.57)
EGDNLRYYYAN,YKNNRPK,SSRDSSGFQVF,4.00 3.99 5.07,4 of 9 (4.12)
EGQSLRYYYAN,GKNNRPS,MSRDSSGFIVF,2.94 2.84 3.07,4 of 9 (4.30)
EGDSDRYYYAN,GKNNRPM,RSRDSSGFQVF,nd nd nd,6 of 9 (4.11)
EGDSLRYYYSN,GKNLRPS,SVRDSSGFQVF,2.02 3.08 1.74,3 of 9 (3.62)
EGASLRYYYAN,GKNNKPS,SSRDSSGFQWF,2.62 2.58 2.24,2 of 9 (3.90)
EGDSLRYYYAN,GKNNRNS,SSRKSSGFQVF,nd 5.25 3.86,2 of 9 (3.94)
EGDSLRYYYAN,GKNNIGS,SSRDSSGFQVM,3.99 3.28 2.32,3 of 9 (3.33)
ESDSLRYHYAN,GDNNRPS,SSRDSSGFQVF,1.10 0.88 0.27,5 of 9 (3.54)
EGDSSRYYYAN,GKNTRPS,SSRSSSGFQVF,3.78 5.01 2.77,4 of 9 (3.69)
EGDSLRYYYAN,GKNNKPS,SSRDDSGCQVF,2.23 2.13 2.34,2 of 9 (4.21)
EGDSLRYCYAN,AKNNRPS,SSRDESGFQVF,3.05 3.17 1.85,2 of 9 (3.84)
EGDSLRYYYAN,GKLNRFS,SPRDSSGFQVF,nd 5.21 nd,1 of 9 (3.47)
EMDSLRYYIAN,GKNNRPS,KSRDSSGFQVF,nd 4.21 nd,0 of 9
EGRKLRHYYAN,GKNNRPS,SSRDSSGFQVF,2.36 2.26 2.29,4 of 9 (3.89)
EGDSLCYYSAN,GKNNRPS,SSRDSSGFTVF,2.35 3.13 2.62,3 of 9 (3.69)
EGDSLAYYYAN,GKNNPPS,SSPDSSGFQVF,nd nd nd,2 of 9 (4.56)

Top 6 of the variants detected in all replicates, tightest first:

{"CDR-L1": "ESDSLRYHYAN", "CDR-L2": "GDNNRPS", "CDR-L3": "SSRDSSGFQVF", "log10 Kd (nM) by replicate": "1.10 0.88 0.27", "signal with controls": "5 of 9 (3.54)"}
{"CDR-L1": "EGDSLRYYYAN", "CDR-L2": "GKNNRPS", "CDR-L3": "SSRDSSGFQHR", "log10 Kd (nM) by replicate": "1.88 1.86 1.62", "signal with controls": "3 of 9 (3.38)"}
{"CDR-L1": "EGDSLRYYTAN", "CDR-L2": "GKNNRPS", "CDR-L3": "ESRDSHGFQVF", "log10 Kd (nM) by replicate": "2.11 1.97 1.51", "signal with controls": "2 of 9 (3.83)"}
{"CDR-L1": "EGDSLRYYGAR", "CDR-L2": "GKNKRPS", "CDR-L3": "SSRDSSGFQVF", "log10 Kd (nM) by replicate": "2.41 2.17 1.84", "signal with controls": "6 of 9 (4.14)"}
{"CDR-L1": "EGNSLEYYYAN", "CDR-L2": "GKNNRPS", "CDR-L3": "SSRDSSGFRVF", "log10 Kd (nM) by replicate": "2.18 2.19 2.21", "signal with controls": "6 of 9 (3.93)"}
{"CDR-L1": "EGDSLRYYYAN", "CDR-L2": "GKNNKPS", "CDR-L3": "SSRDDSGCQVF", "log10 Kd (nM) by replicate": "2.23 2.13 2.34", "signal with controls": "2 of 9 (4.21)"}

Parent in this assay: reference entry 2.31, copy in this library 2.25.
Empty control strains, which show no peptide, gave a signal in 28% of pairings with library AAYL52; the median was 3.91 and 95% of these signals were weaker than 2.90. No background was subtracted. Also given: how often the same scFv was detected with the empty control strains, with their mean in brackets.

Data: MIT Lincoln Laboratory AlphaSeq set, Engelhart et al. 2022, doi:10.1038/s41597-022-01779-4, as distributed in FLAb.